The values below are quoted from earlier work in paper PMC8963331 (Toxicological Sciences, 2022).

For the series the following is noted: mice; 10 mg/kg oral; ref Sandborn et al., 2020; cited from earlier work.

On to `C[C@@H]1CCN(C(=O)CC#N)C[C@@H]1N(C)c1ncnc2[nH]ccc12` [tofacitinib, reference compound], for which the “colon:plasma AUC ratio” value is listed as 41.
